Results as given in patent publication US9815791B2, “Alkylpyrazolyl guanidine F1F0-ATPase inhibitors and therapeutic uses thereof” (Lycera Corporation, priority 2013, dated 2017).

What was measured:
[1] = target: F1F0-ATPase (Bos taurus, UniProt P13621); experiment: Inhibition of F1F0-ATPase activity in synthesizing ATP; conditions: read-out: ATP Syn IC50; inhibition of ATP synthesis
Protocol: (§1) Exemplary compounds described in above Examples were tested for activity against F1F0-ATPase by measuring the ability of the compounds to inhibit ATP synthesis. In addition, the compounds were assessed for cytotoxicity in Ramos cells. Inhibition of F1F0-ATPase activity in synthesizing ATP and cytotoxicity in Ramos cells were measured according to the procedures described in K. M. Johnson et al. Chemistry & Biology 2005, 12, 485-496.

[2] = system: Ramos cells; experiment: Cytotoxicity in Ramos cells; conditions: read-out: Ramos Cell EC50
Protocol: as §1

IC50 [1]	SMILES	EC50 [2]
< 10 µM	Cc1c(NC(=NC(=O)c2ccc(Cl)c(F)c2)Nc2cccc(C(F)(F)F)c2)n[nH]c1C(F)(F)F	< 10 µM
< 10 µM	Cc1c(NC(=NC(=O)c2cccc(Cl)c2)Nc2ccc(Cl)cc2Cl)n[nH]c1C(F)(F)F	< 10 µM
< 10 µM	COc1ccc(C(=O)N=C(Nc2cccc(C(F)(F)F)c2)Nc2n[nH]c(C(F)(F)F)c2C)cc1	< 10 µM
< 10 µM	Cc1c(NC(=NC(=O)c2cccc(Cl)c2)Nc2cccc(C(F)(F)F)c2)n[nH]c1C(F)(F)F	< 10 µM
< 10 µM	Cc1c(NC(=NC(=O)c2ccc(C(F)(F)F)cc2)Nc2cc(F)cc(Cl)c2)n[nH]c1C(F)(F)F	< 10 µM
< 10 µM	Cc1c(NC(=NC(=O)c2ccc(F)c(F)c2)Nc2cccc(C(F)(F)F)c2)n[nH]c1C(F)(F)F	< 10 µM
< 10 µM	Cc1c(NC(=NC(=O)c2ccc(F)c(F)c2)Nc2cccc(Cl)c2)n[nH]c1C(F)(F)F	< 10 µM
